Source: ChEMBL document CHEMBL5154715, “Phenolic Lipids Derived from Cashew Nut Shell Liquid to Treat Metabolic Diseases” (J Med Chem, 2022)

By UniProt entry, the sequences of proteins in these tests, tags left out. Where a name states a change or a piece, a line headed by the entry shows the natural chain unless it says otherwise.
UniProt P37231: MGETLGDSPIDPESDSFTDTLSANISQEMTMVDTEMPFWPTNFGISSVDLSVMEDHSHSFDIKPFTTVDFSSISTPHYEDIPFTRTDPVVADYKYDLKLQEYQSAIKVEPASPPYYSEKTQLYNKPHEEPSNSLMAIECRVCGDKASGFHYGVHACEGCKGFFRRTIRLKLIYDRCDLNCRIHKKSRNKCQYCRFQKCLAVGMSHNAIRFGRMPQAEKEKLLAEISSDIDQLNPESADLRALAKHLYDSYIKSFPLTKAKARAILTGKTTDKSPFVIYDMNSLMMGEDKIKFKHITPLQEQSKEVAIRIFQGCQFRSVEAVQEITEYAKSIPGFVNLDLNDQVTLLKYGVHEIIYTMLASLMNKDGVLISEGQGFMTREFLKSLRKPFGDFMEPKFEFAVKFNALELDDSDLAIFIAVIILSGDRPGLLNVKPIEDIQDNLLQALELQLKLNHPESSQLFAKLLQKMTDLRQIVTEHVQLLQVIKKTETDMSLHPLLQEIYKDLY

Experiments:
[1] = molecular target: Peroxisome proliferator-activated receptor gamma (Homo sapiens, UniProt P37231); assay: Agonist activity at human PPARgamma expressed in HEK293 cells assessed as maximal activity by luciferase/beta-galactosidase reporter gene assay relative to rosiglitazone; assay type: cell-based; conditions: filed as agonist
Outline: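 HEK293 cells in charcoal-stripped FBS, calcium phosphate co-transfected with GAL4-hPPAR LBD fusion, UAS-luciferase and β-galactosidase. Ligand added 6–8 h post transfection, full dose–response, harvested 14–16 h later. Luciferase normalized to β-galactosidase. Emax expressed relative to positive control (GW7647 for α, rosiglitazone for γ) set to 100%.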

[2] = molecular target: T1, Peroxisome proliferator-activated receptor alpha (Homo sapiens) (UniProt Q07869); conditions: dose 50.0 µM
T1 sequence (whole entry): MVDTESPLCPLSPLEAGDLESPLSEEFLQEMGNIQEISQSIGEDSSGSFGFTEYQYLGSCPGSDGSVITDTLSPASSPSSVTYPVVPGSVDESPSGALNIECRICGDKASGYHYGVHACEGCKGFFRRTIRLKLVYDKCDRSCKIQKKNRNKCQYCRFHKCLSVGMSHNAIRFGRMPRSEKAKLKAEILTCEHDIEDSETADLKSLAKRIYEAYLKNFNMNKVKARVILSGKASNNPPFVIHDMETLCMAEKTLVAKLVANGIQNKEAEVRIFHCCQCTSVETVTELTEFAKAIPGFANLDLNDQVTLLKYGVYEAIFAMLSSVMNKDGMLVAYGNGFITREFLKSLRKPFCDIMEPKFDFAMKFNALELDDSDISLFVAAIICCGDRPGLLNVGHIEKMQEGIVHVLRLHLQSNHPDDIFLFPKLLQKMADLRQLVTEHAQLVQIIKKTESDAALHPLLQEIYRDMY

[3] = molecular target: T1, Peroxisome proliferator-activated receptor alpha (Homo sapiens); assay: Stabilization of human PPARalpha LBD assessed as change in melting temperature at 25 uM by thermal shift assay
Outline: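 Purified hPPAR LBD at 1 mg/mL (∼25 μM) with ligand (α-LBD at 25 μM; γ- and δ-LBD at 50 μM). Static light scattering at 473 nm from 25 to 70 °C in 0.5 °C steps, 1 °C/min. Tm from four-parameter fit; ΔTm relative to DMSO; mean ± SEM, N = 3.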

| Structure (SMILES) | Emax [1] [%] | ΔTm [2] [°C] | ΔTm [3] [°C] |
| --- | --- | --- | --- |
| CCCCCCCCCC(=O)O [DECANOIC ACID] | > 90 | – | – |
| CC(C)(Sc1ccc(CCN(CCCCC2CCCCC2)C(=O)NC2CCCCC2)cc1)C(=O)O | – | 5.2 | 5.2 |
